Antibody variant affinities, Ab-14 light chain, assay B

Values reported by Li et al. 2023, doi:10.1038/s41467-023-39022-2 (FLAb copy).

Target: peptide PDVDLGDISGINAS, taken from heptad repeat 2 (HR2) of SARS-CoV-2 spike.

Parent scFv Ab-14: VH joined to VL by three GGGGS repeats. Changes lie in the light chain CDRs alone.
VH: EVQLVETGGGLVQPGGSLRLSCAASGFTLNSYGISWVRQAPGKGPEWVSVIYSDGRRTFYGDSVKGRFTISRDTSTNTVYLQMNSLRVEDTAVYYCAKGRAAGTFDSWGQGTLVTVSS
VL: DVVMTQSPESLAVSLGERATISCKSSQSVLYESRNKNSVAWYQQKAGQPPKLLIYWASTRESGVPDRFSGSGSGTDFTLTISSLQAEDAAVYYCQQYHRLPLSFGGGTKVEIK

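The parent was found by panning a naive human phage display library on the peptide. These sequences belong to a second round, designed from the earlier measurements on random variants of the parent. Several design methods are mixed in this list. Affinity was read by AlphaSeq, a pooled yeast mating assay with surface-displayed partners. Mating (16 h, 30 °C) was followed by selection of diploids and sequencing of their barcodes. The ratio of observed to expected reads was calibrated, replicate by replicate, on BCL2-family standards whose Kd was known from biolayer interferometry. Mating was done six times.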

Variants are written as CDR1, CDR2 and CDR3 of the light chain (limits as in the source). Parent: KSSQSVLYESRNKNSVA, WASTRES, QQYHRLPLS. Numbers give log10(Kd / nM), so 0 is 1 nM and 3 is 1 µM. Smaller is tighter. Replicates are averaged; those with no signal do not enter the mean. "not detected" means that the variant was in the library but no mating with the target was seen in any replicate; the authors take this as a sign of poor binding, and no number exists. Values of this round are not directly comparable with the first-round values of the same sequences. The authors' rule: three or more of the six replicates give a measured affinity, fewer mean a poor binder. Nonspecific signal, from three strains lacking the peptide, appeared in 4% of pairings of all light chain designs, centred on 2.64 (5% of these signals below 1.59); values are not corrected for it. The parent sequence was in this pool as ten entries: three were never detected, three once, and four in most replicates, with averages from 0.34 to 2.37.

CDR-L1 | CDR-L2 | CDR-L3 | mean log10 Kd (nM) | replicates with signal
KSSQSVDYESRNRNSVA | NASTRES | QQYHRLPLS | not detected | 0/6
KMSQSVLYESSNKNSVA | WASTRES | QQYHRLPLS | 0.41 | 6/6
KIAHAPLEFNEKMNSVA | NGACAEI | QQYDRLPLA | not detected | 0/6
RLWAYTQGFWRNMQNIA | DISYRVT | QQYGRLPLS | 1.98 | 6/6
KFSQAVLYESRTKNSVA | NASTRES | QQYHRLPLS | 0.29 | 6/6
QVTNISMPYGRNRNNIA | NTSERMH | QQYQMLPLA | -0.04 | 6/6
KSSQSCWTESRNKNSVA | WASTRES | QQYHRLPLS | 1.54 | 1/6
KLSQSVLYESRVKNSVA | WASTRES | QQVHRLPLS | 1.70 | 1/6
KQQSSEMMGSRNKNSVA | SASKRES | QQYHRLPLS | 1.21 | 6/6
KSSQSVLYESRNKNSVA | AASTRES | PQYHRLPLS | 4.14 | 1/6
TISESWMYESRNKNNVA | EESTKCD | QSYFRLPLS | 1.63 | 5/6
ALSQSMDMTSRNRNSVA | DLTTREN | QQYHRLPLS | 0.51 | 6/6
KSMQSVLYESRNKNSVA | AASHRES | QQYHRLPLS | 1.00 | 6/6
NMKVGLNFEDINHQAIA | SVDEREK | QQYYRLPLT | 0.87 | 6/6
KYSTSELELSRNKNSVA | WASTREL | QQYHRLPLS | 1.41 | 5/6
KLQQSTLYESRNPNSVA | WASTRES | QQYHRLPLS | 0.98 | 6/6
KISQMVRVGSTHTNSIA | EEATRAK | QQYHRLPLF | 0.80 | 6/6
TIGQSVHETTRIKNSVA | HASMRED | QQYDRLPLS | 0.65 | 6/6
KLEMSTLYESRNKNSVA | NASTRES | QQYHRLPLS | -0.25 | 6/6
KLSQSMLYESRWKNSVA | NASQRES | QQYHRLPLS | 0.00 | 6/6
VISQSVLYESRNKNSVA | AASTRES | QTYHRIPLS | 1.04 | 6/6
NMKMSQLQGILIKDSIA | SSNLREM | QQYEHLPLI | 1.82 | 6/6
HSSQSWLYESRNKNSVA | GASTRES | QQYHRLPLS | -0.45 | 6/6
TLMEVGGYQLNQHNSIA | DLRTREN | QQYHRLPLS | 1.35 | 6/6
KLMGIMRLEQKKSNSIA | EVNERSE | QQYDRLPLS | 1.90 | 6/6

Further variants, results first:

mean log10 Kd (nM) | replicates with signal | CDR-L1 | CDR-L2 | CDR-L3
0.71 | 6/6 | KSSQSWLYESHNKNSVA | GASTRSS | QQYDRMPLS
2.97 | 2/6 | MSSQSVLYESRNKNSVA | WASTRES | QQYHGLWLS
0.20 | 6/6 | KLSQSMLYESRNFNSVA | NASQRES | QQYHRLPLS
0.24 | 6/6 | KLGQMTGIESHNKNSLA | DANRREN | QQYHRLPLS
-0.33 | 6/6 | KMEQGVLYESRNKGSVA | DASVRES | QQYHRLPLS
2.17 | 6/6 | KSSQTLLYNSRNKNSVA | WASTRES | QQYHRLPLS
0.00 | 6/6 | KSSFSYLGESRNKNSVA | EASTRES | QQYHRLPLS
0.64 | 6/6 | KIHELGVGNWKTANNIA | QTDLRMS | QSYNRLPLS
-0.42 | 6/6 | KLSQSQLYESRNKNSVA | SASTRES | QQYHRLPLS
1.21 | 6/6 | TISQITSLFSQTINNVA | EVSTRET | QQYDRLPLS
2.28 | 3/6 | KYSQSVLYEARNKNSVA | WASTRES | QQYHRLPLS
-0.05 | 6/6 | KLQQSVPYESRNKNSVA | SASTRES | QQYHRLPLS
-0.42 | 6/6 | KVSTSYLLESRNKNSVA | EASTRES | QQYHRLPLS
0.13 | 6/6 | KVDQWVEYGSRNKNSVA | SASQRSS | QQYHRLPLS
not detected | 0/6 | KQSQSVLYESQNFNSVA | WASTRES | QQYHRLPLS
-0.02 | 6/6 | KSSISYLYESVNKNSVA | EASTRES | QQYHRLPLM
0.63 | 1/6 | KSSTSVLILSRNKNSVA | WASTRES | QQYHHLILS
1.76 | 3/6 | MVSQIMLWGLHAKNSIA | EAQTRLN | QQYDRLPLI
2.78 | 1/6 | MVSQLMLWGLHMKNSIA | EAVTRFN | QQYDRLPLI
1.97 | 2/6 | QLEWDQLWGANYDYSVA | AQDVISP | QQYDRLPLI
0.10 | 6/6 | HLEQSSLYESRNKNSVA | NASQRCS | QQYHRLPLS
0.01 | 6/6 | KVSQSELYESRNSNSVA | NASTRES | QQYHRLPLS
0.58 | 6/6 | SLKYQQDGNGLQRQAVA | GVGLKEE | QQYGRLPLT
2.66 | 5/6 | KSSQSVLYSSRNKNSVA | YASTRES | QQYHRMPLS
0.96 | 5/6 | KISQTFNVGTSNKNSLA | EMSTRGF | QDYHRLPLS
1.68 | 6/6 | NLGGEDFNSTYGMKAVA | DVSEVGE | QHYSRLPLS

A selection of 8 entries from above:

CDR-L1 | CDR-L2 | CDR-L3 | mean log10 Kd (nM) | replicates with signal
TISESWMYESRNKNNVA | EESTKCD | QSYFRLPLS | 1.63 | 5/6
KFSQAVLYESRTKNSVA | NASTRES | QQYHRLPLS | 0.29 | 6/6
NMKMSQLQGILIKDSIA | SSNLREM | QQYEHLPLI | 1.82 | 6/6
KYSQSVLYEARNKNSVA | WASTRES | QQYHRLPLS | 2.28 | 3/6
KSSQSVDYESRNRNSVA | NASTRES | QQYHRLPLS | not detected | 0/6
TLMEVGGYQLNQHNSIA | DLRTREN | QQYHRLPLS | 1.35 | 6/6
KVSTSYLLESRNKNSVA | EASTRES | QQYHRLPLS | -0.42 | 6/6
KSSQSWLYESHNKNSVA | GASTRSS | QQYDRMPLS | 0.71 | 6/6